Assay results as given in patent US20040141914A1, “Cancerous disease modifying antibodies” (priority 2003, published 2004).

Key:
[1] = system: HT-29; assay: Live/Dead cytotoxicity assay, hybridoma supernatant; conditions: HT-29 colon cancer cells, 5 days treatment
[2] = system: SW620; assay: as above; conditions: SW620 colon cancer cells, 5 days treatment

## sodium azide
[1]
  Cytotoxicity (%) HT-29 Average: 61%
[2]
  Cytotoxicity (%) SW620 Average: 68%
